Data on one substance can be found in US7998681B2, “Diagnosis and therapy of antibody-mediated inflammatory auto-immune disorders” (Los Angeles Biomedical Research Institute at Harbor-UCLA …, priority 2000, dated 2011).

What all share (type): cell-based, human
The test system of one assay is RANTES. The assay is described as follows: RANTES ELISA of medium from treated fibroblasts, GD donors. To be noted: TAO orbital fibroblasts; IGF-1 10 nM, TSH high concentrations. The source says: (§1) In addition to its therapeutic aspects, the present invention also relates to a diagnostic method for detecting the presence of antibody-activated fibroblasts in the patient. Applicants believe that several auto immune diseases or disorders are associated with antibody-activated fibroblasts. Applicants have shown that increased activation of fibroblasts by auto-antibodies can be monitored by determining the levels of IL-16 and/or RANTES production in a patient. Altered levels of these chemoattractants can be detected in various biological samples in mammals, preferably humans. Levels of IL-16 and/or RANTES may be monitored in a patient, using standard techniques, as an indication of the deleterious aspects of the disease condition. Biological samples, including but not limited to serum, vitreous humor, aqueous humor, synovial fluid, and tissue, will be drawn from the patient using standard techniques. Particularly preferred are serum samples. The measurement of the IL-16 and RANTES levels may be monitored using any method possible to detect the levels of these proteins in biological samples. A preferred method of analysis is by ELISA as described in Sciaky, D. et al., J. Immunol. 164(7):3806-14, 2000. […]
(§2) The levels of IL-16 and RANTES were then assessed with specific ELISAs. […]

The next assay relates to IL-16. The assay is described as follows: IL-16 ELISA of medium from treated fibroblasts, GD donors. To be noted: TAO orbital fibroblasts, IGF-1 10 nM, TSH high concentrations.
Text: as §1, §2

In the next assay the test system is p70^s6k. Nature of the assay: p70^s6k activation in fibroblasts (S6 peptide phosphorylation; western blot Thr389). To be noted: GD fibroblasts; IgG 100 ng/ml; Thr389 western blot or S6 peptide phosphorylation. The protocol: Confluent monolayers of orbital fibroblasts from two patients with GD (A and B) or a single donor with normal orbital tissue (C) were incubated with nothing (control), normal IgG (100 ng/ml), GD-IgG (100 ng/ml) or IL-1β (10 ng/ml for 15 minutes, cells were rinsed and harvested in lysis buffer. Equivalent amounts of protein were subjected to western blot analysis with pan anti-p70^s6k, phospho-specific anti-p70^s6k Thr389, or anti-actin antibodies. Signals were generated with the ECL method. Column heights represent p70^s6k Thr389 signal densities corrected for their respective actin levels.
As the data in FIG. 2A indicate, TSI activates p70^s6κ. […] The effect of TSI on IL-16 synthesis is time-dependent and has been observed with sera and purified IgG from 6 different patients with severe TAO and has been replicated using three different TAO fibroblast strains.
The induction of IL-16 protein by Graves' IgG is blocked by rapamycin whereas that of RANTES is not. Referring to FIG. 1B, to determine whether Graves' IgG increased levels of activated p70^s6k, Graves'-IgG (100 ng/ml) is determined by western blot immunoblot analysis with a primary antibody specific for p70^s6k phosphorylated at Thr^389. […] Given the ability of rapamycin to block, the activation of p70^s6k appears essential for the induction by Graves' IgG of IL-16 fibroblasts.

Regarding “recombinant TSH: thyrotropin (Thyroid Stimulating Hormone)”, the “induction of RANTES expression by the substance itself” value in the assay with RANTES is on record as “fails to provoke”. In addition, the “induction of IL-16 expression by the substance itself” value is “does not” with IL-16 and “fails to provoke” in the assay on IL-16 (listed as TSH). Moreover, in the assay with p70^s6k, the “activation of p70^s6k” value is listed as “does not activate”.
